Molecular target: nucleosome core particle reconstituted with 207 bp DNA (NCP207), P0C0S8;P62807;Q71DI3;P62805
Assay: fluorescence anisotropy
Conditions: chain shown with the change

Kd: 14 µM
B1: PZP domain of AF10 (AF10PZP, aa 19–208), wild type, O54826 E179K (protein)
chain: KEMIGGCCVCSDERGWAENPLVYCDGHGCSVAVHQACYGIVQVPTGPWFCRKCESQERAARVRCELCPHKDGALKRTDNGGWAHVVCALYIPEVQFANVSTMEPIVLQSVPHDRYNKTCYICDEQGRESKAATGACMTCNKHGCRQAFHVTCAQFAGLLCKEEGNGADNVQYCGYCKYHFSKLKKSKRGS
